Experiments:
[1] = system: Epidermal growth factor receptor (Homo sapiens), P00533 [L858R]
[2] = system: Epidermal growth factor receptor (Homo sapiens), P00533 [L858R,T790M]

## C=CC(=O)Nc1ccc(OC)c(Nc2cc(-c3[nH]c(CCCO)nc3-c3ccc(F)cc3)ccn2)c1
[1]
  Kinact: 0.1 min⁻¹
[2]
  Kinact: 0.13 min⁻¹

## C=CC(=O)NCCSc1nc(-c2ccc(F)cc2)c(-c2ccnc(Nc3ccccc3)c2)[nH]1
[1]
  Kinact: 0.04 min⁻¹
[2]
  Kinact: 0.09 min⁻¹
